The values that follow come from ChEMBL document CHEMBL1926669, “Quantitative structure-activity relationships of 1,3,4-thiadiazol-2(3H)-ones and 1,3,4-oxadiazol-2(3H)-ones as human protoporphyrinogen oxidase inhibitors” (Bioorg Med Chem, 2012).

The experiment concerns the target T1, Protoporphyrinogen oxidase (Homo sapiens, UniProt P50336).
T1 sequence (P50336 whole entry): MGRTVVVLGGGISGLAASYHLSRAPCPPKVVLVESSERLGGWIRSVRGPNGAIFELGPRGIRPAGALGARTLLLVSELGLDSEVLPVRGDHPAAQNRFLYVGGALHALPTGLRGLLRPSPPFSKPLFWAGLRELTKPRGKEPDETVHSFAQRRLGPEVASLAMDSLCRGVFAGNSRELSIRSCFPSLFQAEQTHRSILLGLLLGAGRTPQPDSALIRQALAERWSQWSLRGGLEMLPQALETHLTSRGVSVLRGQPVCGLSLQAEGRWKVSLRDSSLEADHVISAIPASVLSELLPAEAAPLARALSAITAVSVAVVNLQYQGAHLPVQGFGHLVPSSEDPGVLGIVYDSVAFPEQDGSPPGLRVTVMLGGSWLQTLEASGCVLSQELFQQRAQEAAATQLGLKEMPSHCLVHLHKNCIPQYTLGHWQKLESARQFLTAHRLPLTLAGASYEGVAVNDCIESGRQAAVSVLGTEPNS
The experiment is described as follows: Inhibition of human PPO by capillary electrophoresis method.
Molecule `CCOC(=O)CCSc1nc2cc(-n3nc(C(C)(C)C)sc3=O)c(F)cc2s1` returned an inhibition constant (Ki) of 9.26 µM. The same measure for `CCCOC(=O)CSc1nc2cc(-n3nc(C(C)(C)C)sc3=O)c(F)cc2s1`: 1.31 µM. `CCOC(=O)CCSc1nc2cc(-n3nc(C(C)(C)C)sc3=O)c(Cl)cc2s1` showed a Ki of 1.28 µM. The same measure for `CCOC(=O)CCCSc1nc2cc(-n3nc(C(C)(C)C)sc3=O)c(F)cc2s1`: 8.67 µM; for `C#CCSc1nc2cc(-n3nc(C(C)(C)C)sc3=O)c(F)cc2s1`: 9.73 µM. The same measure for `CCOC(=O)CSc1nc2cc(-n3nc(C(C)(C)C)sc3=O)c(Cl)cc2s1`: 5.82 µM.

What is called Ki is a measure of affinity in units of concentration, obtained from inhibition or displacement. High values mean a looser hold on the target, low ones a stronger hold on the target.
